In the library only some 1.8% were active in any assay of this set; here they are far more common.
Cneo AK release – Cryptococcus neoformans cell lysis inducers, primary screen, AK release luminescence, single concentration; lysis activity, % at 15 µM; hit rate 0.2% among 360,000; C. neoformans lysis, adenylate kinase release luminescence, 4 h; normalised: neutral wells 0, clomiphene wells 100; AID 651654, 2012;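 active = mean lysis activity across replicates of at least 80%, whatever share of replicates individually reach that level; inactive = mean lysis activity below 80%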
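Test system: log-phase Cryptococcus neoformans yeast cells; Quantity: yeast cell density of 5 × 10^6 cells/mL; Buffer or medium: YPD; Doses: single compound concentration per well; Timing: 4 h at 37 °C static, read 1 h later; Measured by: AK luminescence; Read-out basis: lysis from increased AK signal; Control set: Clomiphene as positive control.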
DENV2 CPE rescue – inhibitors of DENV2 cytopathic effect, primary screen, cell-based, plate reader, single concentration. AID 651640, 2012. hit rate 1.7% among 350,000. CPE inhibition, % at 9.99 µM. DENV2-infected cells, cytopathic effect rescue; in the data active = CPE inhibition above about 20%, passing the limit was not always enough; inconclusive = no clear call, values can overlap the other calls; tested in BHK-21 cells;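 also: 0% = median of neutral control wells and 100% = median of positive control wells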
Yeast UUG start – alters start codon recognition fidelity in yeast | S. cerevisiae UUG-firefly luciferase reporter, luminescence/redox ratio | activity score, % at 18.7 µM | 350,000 compounds, 0.13% hits | AID 602363;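 active = replicate mean at a twofold rise or more, about +100% in these data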;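 note: firefly luciferase made from a UUG start codon reports start codon fidelity; reporter light over untreated wells divided by growth signal over untreated wells; some hits fall short of that in this replicate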
E-sel inducer – E-selectin induction in HUVECs, primary screen, imaging, HUVEC, immunofluorescence imaging, single point; normalized: neutral wells 0, TNF-alpha wells 100; AID 686992, 2013; hit rate 0.37% among 260,000; P16581; activation, % at 7.58 µM;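 active = mean E-selectin-positive cell signal at least 10% of the positive control, reached in at least 60% of replicates, without over 20% cell loss; inconclusive = no rule given, readout overlaps actives, possibly toxicity-flagged; inactive = the rest, including those meeting only one limit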
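material = human umbilical vein endothelial cells (HUVEC), E-selectin induction | quantity = 3,000 cells/well | medium = EGM-2 growth medium on 0.1% gelatin-coated wells | technique = immunofluorescence imaging | read-out basis = % PE-positive cells | control set = TNF-alpha positive control, DMSO neutral control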
An asterisk follows results filed as active; ? = inconclusive; / = not tested or not shown; ! = repeats disagree.

SMILES	Cneo AK release	DENV2 CPE rescue	Yeast UUG start	E-sel inducer
COc1ccc(CN(C)C[C@@H]2OCCCC[C@H](C)Oc3ccc(NC(=O)Nc4ccccc4)cc3C(=O)N([C@H](C)CO)C[C@H]2C)cc1	4	39*	41	0
COc1ccc(CN(C)C[C@H]2OCCCC[C@@H](C)Oc3ccc(NC(=O)Nc4ccccc4)cc3C(=O)N([C@@H](C)CO)C[C@H]2C)cc1	-16	-7	14	0
O=C(C[C@H]1C[C@@H]2c3cc(NC(=O)NC4CCCCC4)ccc3O[C@@H]2[C@@H](CO)O1)NCc1ccccc1	0	-11	-3	0
C[C@@H]1CCCCO[C@@H](CN(C)S(=O)(=O)c2ccc(F)cc2)[C@H](C)CN([C@@H](C)CO)C(=O)c2cc(NS(=O)(=O)c3ccccc3)ccc2O1	4	6	16	0
COc1ccc(C(=O)Cn2c(NCCCO)nc3ccccc32)cc1	0	?	-19	0
Cc1cc2nc(NCCCO)n(CC(=O)c3cc(C(C)(C)C)c(O)c(C(C)(C)C)c3)c2cc1C	0	32*	3	0
O=C(C1CC1)N1CCCCN2[C@H](CO)[C@H](c3ccc(C#CC4(O)CCCC4)cc3)[C@@H]2C1	-1	1	3	/
COc1cccc2sc3cc(NCc4ccc(C)o4)ccc3c(=O)c12	-3	56*	-13	-1
CNC(=O)C1=C[C@H](c2ccc(C(=O)OC)cc2)C[C@H](OCc2ccc(CO)cc2)O1	0	-4	-11	/
O=C(Nc1ccccc1Cl)c1cc(S(=O)(=O)N2CCCCC2)ccc1N1CCOCC1	0	/	-16	/
COc1ccc(CCC(=O)Nc2cc(S(=O)(=O)N3CCOCC3)ccc2OC(C)C)cc1	-4	70*	-13	0
CC(C)Oc1ccc(S(=O)(=O)N2CCOCC2)cc1NC(=O)c1cc([N+](=O)[O-])ccc1N1CCOCC1	-3	72*	-3	0
COc1cc(NC(=O)c2cc(S(=O)(=O)N3CCCCC3)ccc2N2CCOCC2)cc(OC)c1OC	-1	63*	10	-1
COc1cc(CCC(=O)Nc2cc(S(=O)(=O)N3CCOCC3)ccc2OC(C)C)cc(OC)c1OC	2	-2	1	0
O=C(C[C@H]1CC[C@H]2[C@@H](COC[C@@H](O)CN2Cc2ccccc2)O1)NCc1ccccc1Cl	-3	-5	2	0
C/C=C/[C@@H](CC(=O)N1Cc2ccccc2C[C@H]1CO)[Si](C)(C)c1ccc(OC)cc1	4	39*	8	/
Cc1ccc(S(=O)(=O)N2CCN(C(=O)COC(=O)Cc3ccc(Cl)cc3)CC2)c(C)c1	-8	25*	1	/
Cc1ccc(S(=O)(=O)N(C)C[C@@H]2OCCCC[C@H](C)Oc3ccc(NC(=O)Nc4ccc(F)cc4)cc3C(=O)N([C@H](C)CO)C[C@@H]2C)cc1	1	-2	2	0
COc1ccc(-c2cc(=O)oc3cc(OC(C)C(=O)NC(Cc4c[nH]c5ccc(O)cc45)C(=O)O)ccc23)cc1 (stereo not given)	0	?	-2	/
CCc1cc(=O)oc2cc(C)cc(OCC(=O)NC(Cc3c[nH]c4ccc(O)cc34)C(=O)O)c12 (stereo not given)	1	18	-15	/
CCc1cc(=O)oc2cc(C)cc(OC(C)C(=O)NC(Cc3c[nH]c4ccc(O)cc34)C(=O)O)c12 (stereo not given)	6	68*	-3	/
CC(Oc1ccc2ccc(=O)oc2c1)C(=O)NC(Cc1c[nH]c2ccc(O)cc12)C(=O)O (stereo not given)	-3	102*	-13	/
COc1cccc(-c2ccc3n(c2=O)C[C@H]2[C@H](CO)[C@@H](C(=O)NCC4CC4)[C@@H]3N2S(C)(=O)=O)c1	-1	-1	/	0
COC(=O)[C@H]1[C@H](CO)[C@H]2Cn3c(ccc(-c4ccncc4)c3=O)[C@H]2N1CC1CCCCC1	-2	-4	/	0
COC(=O)[C@H]1[C@H](CO)[C@H]2Cn3c(ccc(-c4ccccc4)c3=O)[C@H]2N1CC1CCCCC1	1	45*	/	0
O=C(NC1CCCC1)[C@@H]1[C@@H](CO)[C@@H]2Cn3c(ccc(-c4ccccc4)c3=O)[C@H]1N2CC1CC1	/	25*	/	0
COC(=O)[C@@H]1[C@@H](CO)[C@@H]2Cn3c(ccc(-c4ccccc4)c3=O)[C@@H]2N1CC1CCCCC1	2	33*	/	-1
CS(=O)(=O)N1[C@@H]2c3ccc(-c4ccc(F)cc4)c(=O)n3C[C@H]1[C@H](CO)[C@H]2C(=O)NCC1CC1	55	121*	/	0
C[C@H]1CN([C@@H](C)CO)C(=O)c2cccc(NC(=O)CCCCCC(=O)Nc3ccccc3N)c2O[C@@H]1CN(C)C	/	23*	/	7
COc1ccc(NC(=O)N(C)C[C@H]2Oc3c(NC(=O)CCCCCC(=O)Nc4ccccc4N)cccc3C(=O)N([C@@H](C)CO)C[C@H]2C)cc1	/	34*	/	0
CC(C)NC(=O)N(C)C[C@H]1Oc2c(NC(=O)CCCCCC(=O)Nc3ccccc3N)cccc2C(=O)N([C@@H](C)CO)C[C@H]1C	/	2	/	40*
CC(C)NC(=O)N(C)C[C@H]1Oc2c(NC(=O)CCCCCC(=O)Nc3ccccc3N)cccc2C(=O)N([C@H](C)CO)C[C@@H]1C	/	-11	/	-15
COc1ccc(S(=O)(=O)Nc2cccc3c2O[C@@H](CN(C)C(=O)Nc2c(C)noc2C)[C@H](C)CN([C@H](C)CO)C3=O)cc1	3	-5	-8	2
Cc1noc(C)c1NC(=O)N(C)C[C@H]1Oc2c(NS(=O)(=O)c3ccccc3)cccc2C(=O)N([C@@H](C)CO)C[C@H]1C	-59	28*	3	1
Cc1noc(C)c1NC(=O)N(C)C[C@H]1Oc2c(NS(=O)(=O)c3ccc(F)cc3)cccc2C(=O)N([C@@H](C)CO)C[C@@H]1C	7	19	-7	1
COc1ccc(S(=O)(=O)Nc2cccc3c2O[C@H](CN(C)C(=O)Nc2c(C)noc2C)[C@@H](C)CN([C@H](C)CO)C3=O)cc1	-4	4	-5	41*!
C[C@@H]1CN([C@H](C)CO)C(=O)c2cc(NC(=O)CCN3CCOCC3)ccc2O[C@@H]1CN(C)C(=O)Nc1ccc(F)cc1	0	9	-1	0
O=C([C@H]1[C@H](CO)[C@H]2Cn3c(ccc(-c4ccccc4)c3=O)[C@H]2N1Cc1cocn1)N1CCCCC1	0	-3	/	-1
O=C(C[C@@H]1CC[C@@H]2[C@H](COC[C@@H](O)CN2C(=O)Nc2ccccc2)O1)NCc1ccncn1	0	-5	-4	0
COc1ccc(S(=O)(=O)NN(C)C(=O)c2nn(-c3ccccc3)ccc2=O)cc1	-1	0	-12	27*
CNC[C@H]1Oc2cc(C#Cc3ccccc3F)ccc2S(=O)(=O)N([C@@H](C)CO)C[C@@H]1C	/	/	/	0
COCC(=O)N(C)C[C@@H]1Oc2ncc(C3=CCCC3)cc2C(=O)N([C@H](C)CO)C[C@H]1C	-4	-1	0	0

Screening data from PubChem.
